Reference: ChEMBL document CHEMBL5726138, “Tricyclic heterocycles as BET protein inhibitors” (2017)

Target: Bromodomain-containing protein 4 (Homo sapiens, UniProt O60885)
Assay: Inhibitors were first serially diluted in DMSO and added to the plate wells before the addition of other reaction components. […] After plate sealing, the plate was incubated in the dark at room temperature for 75 min. before reading on a PHERAstar FS plate reader (BMG Labtech).

`Cc1noc(C)c1-c1ccc2nc(N3CC[C@@H](O)C3)n3c2c1OC[C@@H]3c1cccnc1` was tested, and the IC50 was “in the range around 550 nM”.
